The target of experiment [1] is T1, recombinant human 5-HT6 receptor (Homo sapiens, UniProt P50406). The experiment in a line: biochemical.
Experiment [2] addresses T1, recombinant human 5-HT6 receptor. Particulars: experimental value repeated in Table 5 beside docking scores (value of the tested compound, listed per docked stereoisomer).

Chains of the proteins cited; added tags and fusions are not shown.
UniProt P50406, whole entry: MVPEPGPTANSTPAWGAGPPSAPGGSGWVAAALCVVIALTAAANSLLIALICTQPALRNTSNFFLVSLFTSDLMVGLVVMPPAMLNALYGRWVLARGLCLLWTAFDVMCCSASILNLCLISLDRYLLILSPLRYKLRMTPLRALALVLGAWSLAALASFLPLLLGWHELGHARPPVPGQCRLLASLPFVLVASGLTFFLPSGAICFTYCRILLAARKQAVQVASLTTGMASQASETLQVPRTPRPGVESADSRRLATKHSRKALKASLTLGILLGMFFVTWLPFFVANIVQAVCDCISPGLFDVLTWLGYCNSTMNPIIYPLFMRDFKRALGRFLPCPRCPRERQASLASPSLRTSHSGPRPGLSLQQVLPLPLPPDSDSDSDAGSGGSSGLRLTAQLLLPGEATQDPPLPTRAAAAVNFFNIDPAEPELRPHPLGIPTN

The Ki is a measure of affinity in units of concentration, obtained from inhibition or displacement. The term pKi denotes the Ki on a negative log10 scale, so that one unit is a factor of ten. Turning to `Cc1ccc(S(=O)(=O)n2cc(C(=O)CN3CCN(c4ccccn4)CC3)c3ccccc32)cc1` [Compound 3a, 2-(4-(Pyridyl-2-yl)piperazin-1-yl)-1-(1-tosyl-1H-indol-3-yl)ethanone], the Ki in experiment [1] is 1780 nM. The pKi in experiment [2] is on record as 5.75.
The like results for `COc1ccccc1N1CCN(CC(=O)c2cn(S(=O)(=O)c3ccc(C)cc3)c3ccccc23)CC1` [Compound 3b, 2-(4-(2-Methoxyphenyl)piperazin-1-yl)-1-(1-tosyl-1H-indol-3-yl)ethanone] were, in that order, 10700 nM and 4.97.
The like results for `Cc1ccc(S(=O)(=O)n2cc(C(=O)CN3CCN(c4ncccn4)CC3)c3ccccc32)cc1` [Compound 3c, 2-(4-(Pyrimidin-2-yl)piperazin-1-yl)-1-(1-tosyl-1H-indol-3-yl)ethanone] were, in that order, 776 nM and 6.11.
The like results for `O=C(CN1CCN(c2ncccn2)CC1)c1cn(S(=O)(=O)c2ccc(Cl)cc2)c2ccccc12` [Compound 3d, 1-(1-(4-Chlorophenylsulfonyl)-1H-indol-3-yl)-2-(4-(pyrimidin-2-yl)piperazin-1-yl)ethanone] were, in that order, 8510 nM and 5.07.
`O=C(CN1CCN(c2ncccn2)CC1)c1cn(S(=O)(=O)c2ccc(F)cc2)c2ccccc12` [Compound 3e, 1-(1-(4-Fluorophenylsulfonyl)-1H-indol-3-yl)-2-(4-(pyrimidin-2-yl)piperazin-1-yl)ethanone]: the Ki in experiment [1] was 19100 nM. Further, the pKi in experiment [2] is given as 4.72.
The like results for `O=C(CN1CCN(c2ccccn2)CC1)c1cn(S(=O)(=O)c2ccc(I)cc2)c2ccccc12` [Compound 3f, 1-(1-(4-Iodophenylsulfonyl)-1H-indol-3-yl)-2-(4-(pyridin-2-yl)piperazin-1-yl)ethanone] were, in that order, 794 nM and 6.1.
The like results for `COc1ccccc1N1CCN(CC(=O)c2cn(S(=O)(=O)c3ccc(I)cc3)c3ccccc23)CC1` [Compound 3g, 1-(1-(4-Iodophenylsulfonyl)-1H-indol-3-yl)-2-(4-(2-methoxyphenyl)piperazin-1-yl)ethanone] were, in that order, 1910 nM and 5.72.
`O=C(CN1CCN(c2ncccn2)CC1)c1cn(S(=O)(=O)c2ccc(I)cc2)c2ccccc12` [Compound 3h, 1-(1-(4-Iodophenylsulfonyl)-1H-indol-3-yl)-2-(4-(pyrimidin-2-yl)piperazin-1-yl)ethanone]: in experiment [1], the Ki is 417 nM. Also, the negative logarithm of the Ki (pKi) in experiment [2] stood at 6.38.
Consider `O=C(CN1CCN(c2ccccn2)CC1)c1cn(S(=O)(=O)c2cccc3ccccc23)c2ccccc12` [Compound 3i, 1-(1-(Naphthalen-1-ylsulfonyl)-1H-indol-3-yl)-2-(4-(pyridin-2-yl)piperazin-1-yl)ethanone], for which the Ki in experiment [1] was 1230 nM. Also, in experiment [2], the pKi is recorded as 5.91.
`COc1ccccc1N1CCN(CC(=O)c2cn(S(=O)(=O)c3cccc4ccccc34)c3ccccc23)CC1` [Compound 3j, 2-(4-(2-Methoxyphenyl)piperazin-1-yl)-1-(1-(naphthalen-1-ylsulfonyl)-1H-indol-3-yl)ethanone]: the Ki in experiment [1] was 1260 nM. The pKi in experiment [2] turned out to be 5.9.
The like results for `O=C(CN1CCN(c2ncccn2)CC1)c1cn(S(=O)(=O)c2cccc3ccccc23)c2ccccc12` [Compound 3k, 1-(1-(Naphthalen-1-ylsulfonyl)-1H-indol-3-yl)-2-(4-(pyrimidin-2-yl)piperazin-1-yl)ethanone] were, in that order, 1410 nM and 5.85.
Regarding `Cc1ccc(S(=O)(=O)n2cc([C@@H](O)CN3CCN(c4ccccn4)CC3)c3ccccc32)cc1` [Compound 4a_r], the pKi in experiment [2] was 6.32.
Regarding `Cc1ccc(S(=O)(=O)n2cc([C@H](O)CN3CCN(c4ccccn4)CC3)c3ccccc32)cc1` [Compound 4a_s], the pKi in experiment [2] is reported as 6.32.
Consider `COc1ccccc1N1CCN(CC(O)c2cn(S(=O)(=O)c3ccc(C)cc3)c3ccccc23)CC1` (stereo not drawn) [Compound 4b, 2-(4-(2-Methoxyphenyl)piperazin-1-yl)-1-(1-tosyl-1H-indol-3-yl)ethanol], for which the Ki in experiment [1] is 13.5 nM.
Regarding `COc1ccccc1N1CCN(C[C@H](O)c2cn(S(=O)(=O)c3ccc(C)cc3)c3ccccc23)CC1` [Compound 4b_r], the pKi in experiment [2] is given as 7.87.
Same read-out and setting: in the case of `COc1ccccc1N1CCN(C[C@@H](O)c2cn(S(=O)(=O)c3ccc(C)cc3)c3ccccc23)CC1` [Compound 4b_s] it was 7.87.
On to `Cc1ccc(S(=O)(=O)n2cc(C(O)CN3CCN(c4ncccn4)CC3)c3ccccc32)cc1` (stereo not drawn) [Compound 4c, 2-(4-(Pyrimidin-2-yl)piperazin-1-yl)-1-(1-tosyl-1H-indol-3-yl)ethanol], for which the Ki in experiment [1] was 851 nM.
As to `Cc1ccc(S(=O)(=O)n2cc([C@@H](O)CN3CCN(c4ncccn4)CC3)c3ccccc32)cc1` [Compound 4c_r], the pKi in experiment [2] was determined as 6.07.
Same read-out and setting: the result for `Cc1ccc(S(=O)(=O)n2cc([C@H](O)CN3CCN(c4ncccn4)CC3)c3ccccc32)cc1` [Compound 4c_s] reads 6.07.
As to `O=S(=O)(c1ccc(Cl)cc1)n1cc(C(O)CN2CCN(c3ncccn3)CC2)c2ccccc21` (stereo not drawn) [Compound 4d, 1-(1-(4-Chlorophenylsulfonyl)-1H-indol-3-yl)-2-(4-(pyrimidin-2-yl)piperazin-1-yl)ethanol], the Ki in experiment [1] is 3720 nM.
As to `O=S(=O)(c1ccc(Cl)cc1)n1cc([C@@H](O)CN2CCN(c3ncccn3)CC2)c2ccccc21` [Compound 4d_r], the pKi in experiment [2] turned out to be 5.43.
On the same count and under the same terms, the result for `O=S(=O)(c1ccc(Cl)cc1)n1cc([C@H](O)CN2CCN(c3ncccn3)CC2)c2ccccc21` [Compound 4d_s] reads 5.43.
Consider `O=S(=O)(c1ccc(F)cc1)n1cc(C(O)CN2CCN(c3ncccn3)CC2)c2ccccc21` (stereo not drawn) [Compound 4e, 1-(1-(4-Fluorophenylsulfonyl)-1H-indol-3-yl)-2-(4-(pyrimidin-2-yl)piperazin-1-yl)ethanol], for which the Ki in experiment [1] is 2190 nM.
Regarding `O=S(=O)(c1ccc(F)cc1)n1cc([C@@H](O)CN2CCN(c3ncccn3)CC2)c2ccccc21` [Compound 4e_r], the pKi in experiment [2] is listed as 5.66.
Same read-out and setting: the result for `O=S(=O)(c1ccc(F)cc1)n1cc([C@H](O)CN2CCN(c3ncccn3)CC2)c2ccccc21` [Compound 4e_s] reads 5.66; that for `O=S(=O)(c1ccc(I)cc1)n1cc([C@@H](O)CN2CCN(c3ccccn3)CC2)c2ccccc21` [Compound 4f_r], 6.43.
The same measure, in the same setting: in the case of `O=S(=O)(c1ccc(I)cc1)n1cc([C@H](O)CN2CCN(c3ccccn3)CC2)c2ccccc21` [Compound 4f_s] it was 6.43.
On to `COc1ccccc1N1CCN(CC(O)c2cn(S(=O)(=O)c3ccc(I)cc3)c3ccccc23)CC1` (stereo not drawn) [Compound 4g, 1-(1-(4-Iodophenylsulfonyl)-1H-indol-3-yl)-2-(4-(2-methoxyphenyl)piperazin-1-yl)ethanol], for which the Ki in experiment [1] is 18.6 nM.
For `COc1ccccc1N1CCN(C[C@H](O)c2cn(S(=O)(=O)c3ccc(I)cc3)c3ccccc23)CC1` [Compound 4g_r], the pKi in experiment [2] came to 7.73.
Still for that read-out and setting: the result for `COc1ccccc1N1CCN(C[C@@H](O)c2cn(S(=O)(=O)c3ccc(I)cc3)c3ccccc23)CC1` [Compound 4g_s] reads 7.73.
For the compound `O=S(=O)(c1ccc(I)cc1)n1cc(C(O)CN2CCN(c3ncccn3)CC2)c2ccccc21` (stereo not drawn) [Compound 4h, 1-(1-(4-Iodophenylsulfonyl)-1H-indol-3-yl)-2-(4-(pyrimidin-2-yl)piperazin-1-yl)ethanol], the Ki in experiment [1] amounted to 617 nM.
`O=S(=O)(c1ccc(I)cc1)n1cc([C@@H](O)CN2CCN(c3ncccn3)CC2)c2ccccc21` [Compound 4h_r]: the negative-log Ki (pKi) in experiment [2] was found to be 6.21.
Turning to `O=S(=O)(c1ccc(I)cc1)n1cc([C@H](O)CN2CCN(c3ncccn3)CC2)c2ccccc21` [Compound 4h_s], in experiment [2], the negative logarithm of the Ki (pKi) was found to be 6.21.
On to `O=S(=O)(c1cccc2ccccc12)n1cc([C@@H](O)CN2CCN(c3ccccn3)CC2)c2ccccc21` [Compound 4i_r], for which, in experiment [2], the pKi was 6.83.
On the same count and under the same terms, in the case of `O=S(=O)(c1cccc2ccccc12)n1cc([C@H](O)CN2CCN(c3ccccn3)CC2)c2ccccc21` [Compound 4i_s] it was 6.83.
Regarding `COc1ccccc1N1CCN(CC(O)c2cn(S(=O)(=O)c3cccc4ccccc34)c3ccccc23)CC1` (stereo not drawn) [Compound 4j, 2-(4-(2-Methoxyphenyl)piperazin-1-yl)-1-(1-(naphthalen-1-ylsulfonyl)-1H-indol-3-yl)ethanol], the Ki in experiment [1] was 14.8 nM.
For the compound `COc1ccccc1N1CCN(C[C@H](O)c2cn(S(=O)(=O)c3cccc4ccccc34)c3ccccc23)CC1` [Compound 4j_r], the pKi in experiment [2] stood at 7.83.
Consider `O=S(=O)(c1cccc2ccccc12)n1cc(C(O)CN2CCN(c3ncccn3)CC2)c2ccccc21` (stereo not drawn) [Compound 4k, 1-(1-(Naphthalen-1-ylsulfonyl)-1H-indol-3-yl)-2-(4-(pyrimidin-2-yl)piperazin-1-yl)ethanol], for which the inhibition constant Ki in experiment [1] is 603 nM.
With `O=S(=O)(c1cccc2ccccc12)n1cc([C@@H](O)CN2CCN(c3ncccn3)CC2)c2ccccc21` [Compound 4k_r], in experiment [2], the pKi was 6.22.
Still for that read-out and setting: in the case of `O=S(=O)(c1cccc2ccccc12)n1cc([C@H](O)CN2CCN(c3ncccn3)CC2)c2ccccc21` [Compound 4k_s] it was 6.22.
Consider `COc1ccc(S(=O)(=O)n2cc(C(O)CN3CCOCC3)c3ccccc32)cc1` (stereo not drawn) [Compound 4l, 1-(1-(4-Methoxyphenylsulfonyl)-1H-indol-3-yl)-2-morpholinoethanol], for which, in experiment [1], the inhibition constant Ki was 891 nM.
Turning to `COc1ccc(S(=O)(=O)n2cc([C@@H](O)CN3CCOCC3)c3ccccc32)cc1` [Compound 4l_r], the pKi in experiment [2] is recorded as 6.05.
In the case of `COc1ccc(S(=O)(=O)n2cc([C@H](O)CN3CCOCC3)c3ccccc32)cc1` [Compound 4l_s], the negative logarithm of the Ki (pKi) in experiment [2] is given as 6.05.
Regarding `O=S(=O)(c1cc(F)cc(F)c1)n1cc(C(O)CN2CCOCC2)c2ccccc21` (stereo not drawn) [Compound 4m, 1-(1-(3,5-Difluorophenylsulfonyl)-1H-indol-3-yl)-2-morpholinoethanol], the Ki in experiment [1] was 7590 nM.
Consider `O=S(=O)(c1cc(F)cc(F)c1)n1cc([C@@H](O)CN2CCOCC2)c2ccccc21` [Compound 4m_r], for which, in experiment [2], the pKi was found to be 5.12.
On the same count and under the same terms, in the case of `O=S(=O)(c1cc(F)cc(F)c1)n1cc([C@H](O)CN2CCOCC2)c2ccccc21` [Compound 4m_s] it was 5.12.
